Data reported in patent US5208217A, “Hepatospecific insulin analogues” (Mount Sinai School of Medicine of The City University of …, priority 1991, dated 1993).

Amino acid sequences for entries named in this document (tags omitted). Residues count along the entry.
UniProt P15127, 27-759 limits assumed: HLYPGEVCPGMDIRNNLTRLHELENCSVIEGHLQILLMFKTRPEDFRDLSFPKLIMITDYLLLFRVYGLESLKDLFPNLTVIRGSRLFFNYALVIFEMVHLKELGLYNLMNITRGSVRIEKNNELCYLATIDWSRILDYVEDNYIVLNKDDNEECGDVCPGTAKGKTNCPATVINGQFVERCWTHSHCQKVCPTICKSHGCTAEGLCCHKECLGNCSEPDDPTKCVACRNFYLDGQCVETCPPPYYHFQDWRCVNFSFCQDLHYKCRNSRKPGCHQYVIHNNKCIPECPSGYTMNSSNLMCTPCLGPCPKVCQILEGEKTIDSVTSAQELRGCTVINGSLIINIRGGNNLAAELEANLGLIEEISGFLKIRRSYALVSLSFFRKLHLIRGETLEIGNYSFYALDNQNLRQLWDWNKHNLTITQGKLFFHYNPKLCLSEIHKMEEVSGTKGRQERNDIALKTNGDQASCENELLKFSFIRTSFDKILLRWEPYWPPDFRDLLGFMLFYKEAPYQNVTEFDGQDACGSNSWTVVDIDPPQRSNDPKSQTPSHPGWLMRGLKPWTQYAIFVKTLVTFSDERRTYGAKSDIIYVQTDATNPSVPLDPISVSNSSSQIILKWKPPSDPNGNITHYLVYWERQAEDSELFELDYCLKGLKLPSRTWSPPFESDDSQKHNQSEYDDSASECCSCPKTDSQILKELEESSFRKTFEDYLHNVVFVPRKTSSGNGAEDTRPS
UniProt P15127, 764-1383 partner limits assumed: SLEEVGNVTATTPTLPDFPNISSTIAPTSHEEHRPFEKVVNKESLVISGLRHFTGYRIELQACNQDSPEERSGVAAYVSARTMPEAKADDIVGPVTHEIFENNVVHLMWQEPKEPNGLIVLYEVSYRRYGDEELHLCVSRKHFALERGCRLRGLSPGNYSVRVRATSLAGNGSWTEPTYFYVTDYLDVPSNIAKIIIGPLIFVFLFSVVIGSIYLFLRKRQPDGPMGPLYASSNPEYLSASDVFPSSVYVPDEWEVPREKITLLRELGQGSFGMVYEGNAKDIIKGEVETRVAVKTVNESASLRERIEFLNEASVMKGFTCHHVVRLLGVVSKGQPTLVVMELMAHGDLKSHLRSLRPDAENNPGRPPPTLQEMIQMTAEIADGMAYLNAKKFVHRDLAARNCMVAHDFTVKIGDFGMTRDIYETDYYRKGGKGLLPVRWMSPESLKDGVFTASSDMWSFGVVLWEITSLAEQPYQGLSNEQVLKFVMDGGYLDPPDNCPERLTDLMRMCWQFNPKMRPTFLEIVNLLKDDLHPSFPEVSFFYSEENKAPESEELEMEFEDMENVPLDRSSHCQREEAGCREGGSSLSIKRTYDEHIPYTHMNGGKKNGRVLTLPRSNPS

Target: T1, insulin receptors (Rattus norvegicus, UniProt P15127)
T1 construct: plasma membranes (20-40 μg of protein) in 0.1M sodium phosphate, pH 7.4; from tissue; host or cells: rat liver plasma membrane fraction
Test: Insulin receptor binding assay (inhibition of specific 125I-insulin binding)
Details: rat liver plasma membranes; relative to the natural hormone (unlabelled insulin); 45 min at 24° C.
Excerpt: In this Example the materials used and the analytical procedures followed are those found in Kitagawa et al., Biochemistry, 23: 1405-1413 (1984). ^125 I-insulin for receptor binding studies and [3-^3 H] glucose for lipogenesis were obtained from DuPont NEN Research Products. Cellulose acetate membrane filters, 0.2 μm pore size, were products of Sartorius. Glass-fiber filters, Type GFC, were from Whatman. Collagenase, Type II crude, was obtained from Worthington. The scintillation fluids Filtron-X®, Hydrofluor® and Soluscint-O® were products of National Diagnostics. Crystalline bovine insulin was from Sigma, and fatty-acid free bovine serum albumin from Boehringer - Mannheim Biochemicals.
The first two procedures were done in accordance with Burke et. al, Biochemistry 19:4547-4556, (1980).
Briefly, triplicate 0.2 ml incubations contained ^125 I-insulin, 3×10^-10 M, unlabelled insulin or [Trp^14 -A] insulin prepared as in Example 1, and plasma membranes (20-40 μg of protein) in 0.1M sodium phosphate, pH 7.4, containing 0.6% fraction V bovine serum albumin. […] The filters were washed twice with the ice cold buffer, dried, and then radioactivity was counted in a scintillation counter using Filtron-X®.

Relative potency in inhibiting 50% of the specific binding of 125I-insulin to the receptor preparation: about 60%
Substance: [Trp^14 -A] insulin
